From PMC10709440, “High-throughput ligand profile characterization in novel cell lines expressing seven heterologous insect olfactory receptors for the detection of volatile plant biomarkers” (Scientific Reports, 2023)

Target: T1, Drosophila OR98a (Drosophila melanogaster, UniProt Q9VAZ3)
T1 construct: expressed in transfected cells
T1 sequence (Q9VAZ3 1-397): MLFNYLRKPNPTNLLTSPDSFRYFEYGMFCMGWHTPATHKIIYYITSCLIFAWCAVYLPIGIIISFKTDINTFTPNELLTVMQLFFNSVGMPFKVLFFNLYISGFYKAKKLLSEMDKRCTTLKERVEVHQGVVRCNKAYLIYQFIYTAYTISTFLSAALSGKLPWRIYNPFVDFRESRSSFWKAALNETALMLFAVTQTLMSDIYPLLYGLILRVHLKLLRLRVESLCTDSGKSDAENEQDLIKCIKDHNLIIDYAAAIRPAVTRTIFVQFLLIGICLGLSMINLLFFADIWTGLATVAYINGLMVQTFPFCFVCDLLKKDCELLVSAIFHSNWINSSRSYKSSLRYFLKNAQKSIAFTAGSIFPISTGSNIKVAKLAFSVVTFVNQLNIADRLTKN
T1 sequence (Q9VNB5 1-486 partner): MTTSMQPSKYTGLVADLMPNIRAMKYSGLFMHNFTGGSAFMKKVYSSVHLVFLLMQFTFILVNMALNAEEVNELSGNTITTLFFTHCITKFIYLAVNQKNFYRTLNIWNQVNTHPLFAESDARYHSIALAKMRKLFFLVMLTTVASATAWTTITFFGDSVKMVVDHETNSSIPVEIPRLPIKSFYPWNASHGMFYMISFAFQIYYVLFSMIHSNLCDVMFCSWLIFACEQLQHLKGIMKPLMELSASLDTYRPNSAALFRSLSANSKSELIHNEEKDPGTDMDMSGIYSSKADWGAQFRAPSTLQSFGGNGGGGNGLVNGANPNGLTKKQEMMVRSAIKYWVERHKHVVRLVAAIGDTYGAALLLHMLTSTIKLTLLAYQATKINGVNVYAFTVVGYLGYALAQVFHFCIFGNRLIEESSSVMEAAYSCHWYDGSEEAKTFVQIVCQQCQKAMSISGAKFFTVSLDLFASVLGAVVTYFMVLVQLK
Assay: Calcium ion fluorescence (GCaMP6) assay, OR98a stable HEK293 cell line
Assay type: cell-based
Settings: for DF norm AVERAGE OR98a: normalized fluorescence change, values below 0.05 threshold given as 0
Protocol: These VUAA1 normalized ∆F values were used to compare the different receptors and ligands.
The concentration-dependent effect of the reference ligands on their cognate cell lines was examined in more detail. Twelve different ligand concentrations were measured on each cell line in an overall 0.01 μM to 100 μM concentration range with 5 repetitions with three technical replicates each time.
Twelve thousand to 18,000 cells were plated into each well of a black wall, transparent bottom 384-well microplate (Greiner) 48 h or 72 h before the measurements and were simultaneously treated with 1 μg/mL doxycycline. […] The plate has 24 columns, thus we could record responses in up to eight different cell lines in each plate. On the day of the experiment, the growth medium was replaced with 20 µL assay buffer/well (140 mM NaCl, 5 mM KCl, 2 mM CaCl2, 1 mM MgCl2, 5 mM HEPES-Na, 20 mM glucose, pH 7.3, 340 mOsm). […] Baseline fluorescence (F0) was recorded for 5 s, after which 7 µL VOC buffer (140 mM NaCl, 5 mM KCl, 2 mM CaCl2, 1 mM MgCl2, 5 mM HEPES-Na, 31 mM glucose, 0.1% DMSO, pH 7.3, 340 mOsm) was injected into each well in one row and the fluorescence response was recorded for an additional 30 s, at a rate of one read/sec. VOC solutions (VOC buffer with 4× concentration of the final measured VOC concentration, 9 µL/well was injected) were measured on the same wells in a second round with the same protocol. Each individual concentration of a specific VOC sample was recorded in three wells for the same cell line on the same microplate. The raw data were exported in xls file format, F0 and FMAX values, and the fluorescence intensity changes (∆F) were calculated in Excel (Microsoft) (Supplementary file Data summary.xlsx) using the following equation: ΔF=FMAX-F0/F0 (see also Fig. 1C). On each plate, we recorded the response of each cell line to 50 µM VUAA1. The average of these ∆F values of each cell line were used to calculate the VUAA1-normalized values for the rest of the plate, by dividing VOC response ∆F values by the average VUAA1 response ∆F value of the corresponding OR cell line. Each VOC-OR combination was measured three times as technical replicates. […] The average of these replicates were used as one ∆F and VUAA1-normalized ∆F in the following analysis.
In the next rows we tested the reference VOCs (or other VOCs known to activate the corresponding cell lines), in order to test if all cell lines are responsive. The remaining rows were used to test VOCs with unknown effect.
The recorded FMAX, F0, ∆F, VUAA1-normalized ∆F values, as well as the OR name, the name of the tested sample, and the final concentration for each well were copied into supplementary file Data summary.xlsx, that was used to summarize all the plates recorded. Here, the averages of the measurements were calculated for each receptor-VOC-concentration combination.

[1] = HEK293, read-out: Average response
[2] = HEK293, read-out: OR98a Average response (VUAA1-normalized)
[3] = HEK293, read-out: OR98a response (VUAA1-normalized response)
[4] = VOC concentration 0.3 (unit not given)
[5] = VOC concentration 0.6 (unit not given)
[6] = VOC concentration 1.25 (unit not given)
[7] = VOC concentration 2.5 (unit not given)
[8] = VOC concentration 5 (unit not given)
[9] = VOC concentration 10 (unit not given)
[10] = VOC concentration 20 (unit not given)
[11] = VOC concentration 40 (unit not given)
[12] = VOC concentration 60 (unit not given)
[13] = VOC concentration 80 (unit not given)
[14] = VOC concentration 100 (unit not given)

CC(=O)CCC=C(C)C [6-methyl-5-hepten-2-one]
EC50 (AVERAGE EC50, from average LOG EC50, N 5): 2060 nM | EC50 (EC50 (fitted parameter), individual biological replicates): 1940 nM and 2500 nM and 3520 nM and 1560 nM and 1410 nM | EC50 (EC50, AVERAGE, arithmetic average of 5 replicate EC50): 2180 nM | EC50 (EC50, FITTED AVERAGE CURVE, fit to the average curve): 2220 nM | EC50 (EC50, OR98a cell line, fitted Hill equation, Hill coefficient constrained to 1, maximal response max 1): 2060 nM | activation at 1 µM [1]: 10% | activation at 10 µM [1]: 27% | activation at 100 µM [1]: 44% | activation at 1 µM [2]: 10% | activation at 10 µM [2]: 27% | activation at 100 µM [2]: 44% | activation at 1 µM [3]: 10% | activation at 10 µM [3]: 27% | activation at 100 µM [3]: 44% | Emax (HEK293, read-out: VUAA1 normalized MAX response): 58% | EC50 (LOG EC50 (fitted parameter), individual biological replicates, OR98a D-R sheet): 1940 nM and 2500 nM and 3520 nM and 1560 nM and 1410 nM | EC50 (LOG EC50, AVERAGE, average of 5 biological replicates): 2060 nM | response, AVERAGE [4]: 0.1102 | response, biological replicates [4]: 0.1554 and 0 and 0.1737 and 0.1116 | response, AVERAGE [5]: 0.09308 | response, biological replicates [5]: 0.06557 and 0.1732 and 0 and 0.1276 and 0.09906 | response, AVERAGE [6]: 0.2409 | response, biological replicates [6]: 0.2537 and 0.1694 and 0.3406 and 0.1997 | response, AVERAGE [7]: 0.2802 | response, biological replicates [7]: 0.2818 and 0.3683 and 0.1929 and 0.2904 and 0.2678 | response, AVERAGE [8]: 0.4033 | response, biological replicates [8]: 0.524 and 0.2746 and 0.428 and 0.3866 | response, AVERAGE [9]: 0.4921 | response, biological replicates [9]: 0.5182 and 0.6592 and 0.3658 and 0.4172 and 0.5001 | response, AVERAGE [10]: 0.6119 | response, biological replicates [10]: 0.4846 and 0.7851 and 0.5536 and 0.772 and 0.4641 | response, AVERAGE [11]: 0.5706 | response, biological replicates [11]: 0.3973 and 0.8542 and 0.4845 and 0.6219 and 0.4952 | response, AVERAGE [12]: 0.6266 | response, biological replicates [12]: 0.7868 and 0.5652 and 0.7445 and 0.4099 | response, AVERAGE [13]: 0.4565 | response, biological replicates [13]: 0.4942 and 0.7192 and 0.3421 and 0.3894 and 0.3373 | response, AVERAGE [14]: 0.5389 | response, biological replicates [14]: 0.7398 and 0.4357 and 0.5086 and 0.4715 | AVERAGE MAX (average of 5 biological replicates): 0.5775 | DF norm AVERAGE OR98a (concentration 1): 0.1044 | DF norm AVERAGE OR98a (concentration 10): 0.2747 | DF norm AVERAGE OR98a (concentration 100): 0.4431 | MAX, FITTED AVERAGE CURVE (fit to the average curve): 0.5999 | MAX (fitted parameter) (individual biological replicates): 0.5073 and 0.814 and 0.5036 and 0.5994 and 0.4633

Several values for one entry are separate records, joined by “and”; a condition that tells them apart may be missing. Equal values may be shown once. Read-outs that look alike come from different tables or passages of the source.
